Measurements: PubChem BioAssay AID1416 (The Scripps Research Institute Molecular Screening Center, 2008)
The entries are a selection whose mix differs from that of the whole data set. Calls of active or inactive are those of the source.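 Rule for the calls: active = inhibition above the mean inhibition of all tested compounds plus 3 SD, set separately per screening campaign (cut at about 2.9% in these data); inactive = the rest.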

Amino acid sequences for entries named in this document (tags omitted).
UniProt Q9NZJ5, whole entry: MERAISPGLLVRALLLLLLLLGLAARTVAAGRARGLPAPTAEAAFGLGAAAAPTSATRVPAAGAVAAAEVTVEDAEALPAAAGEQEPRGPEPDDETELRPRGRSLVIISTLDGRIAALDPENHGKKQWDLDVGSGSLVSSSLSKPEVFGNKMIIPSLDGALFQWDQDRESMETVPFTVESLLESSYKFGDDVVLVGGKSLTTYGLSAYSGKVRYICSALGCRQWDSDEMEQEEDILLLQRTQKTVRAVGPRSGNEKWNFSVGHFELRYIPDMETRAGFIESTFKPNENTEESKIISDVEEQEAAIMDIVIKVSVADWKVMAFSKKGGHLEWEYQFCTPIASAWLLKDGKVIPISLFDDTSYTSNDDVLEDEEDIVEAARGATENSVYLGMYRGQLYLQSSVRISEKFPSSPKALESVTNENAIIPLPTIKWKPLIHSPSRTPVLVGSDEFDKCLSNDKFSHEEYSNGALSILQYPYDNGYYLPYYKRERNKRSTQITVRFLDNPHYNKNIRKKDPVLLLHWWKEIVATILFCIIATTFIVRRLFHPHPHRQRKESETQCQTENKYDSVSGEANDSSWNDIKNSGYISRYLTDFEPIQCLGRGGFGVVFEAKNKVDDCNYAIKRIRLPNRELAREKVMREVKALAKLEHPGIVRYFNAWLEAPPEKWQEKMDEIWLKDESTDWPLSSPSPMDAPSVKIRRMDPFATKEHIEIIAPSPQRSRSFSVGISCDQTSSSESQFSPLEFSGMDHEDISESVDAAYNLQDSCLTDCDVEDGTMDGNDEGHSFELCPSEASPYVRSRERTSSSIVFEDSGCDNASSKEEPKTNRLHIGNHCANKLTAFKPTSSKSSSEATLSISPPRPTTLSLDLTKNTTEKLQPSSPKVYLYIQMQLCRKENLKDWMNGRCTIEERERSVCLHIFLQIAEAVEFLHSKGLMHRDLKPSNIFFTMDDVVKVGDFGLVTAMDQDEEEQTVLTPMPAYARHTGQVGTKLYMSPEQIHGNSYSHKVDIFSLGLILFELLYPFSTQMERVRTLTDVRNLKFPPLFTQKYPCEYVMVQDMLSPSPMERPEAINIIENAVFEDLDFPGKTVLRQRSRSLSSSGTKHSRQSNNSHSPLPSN

Molecular target: Eukaryotic translation initiation factor 2-alpha kinase 3 (Homo sapiens) (UniProt Q9NZJ5)
Test: block of dimerizer-induced PERK translation repression, primary screen, PERK inhibitor project, CHO PERK-DD cells, SEAP luminescence, HTS (AID 1416);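 note: PERK kinase domain activated by AP20187 dimerizer at 100 nM; 0% = DMSO with dimerizer and 100% = rapamycin at 8.4 µM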
Conditions: CHO PERK-DD fusion, SEAP luminescence translation reporter; at 5.6 µM; hits give high values

| SMILES | inhibition |
| --- | --- |
| CCOC(=O)C(CC)C1=NC(C)(C)Cc2ccccc21.O=[N+]([O-])c1cc([N+](=O)[O-])c(O)c([N+](=O)[O-])c1 (stereo not drawn) | inactive: 0.75% |
| O=[N+]([O-])c1cc([N+](=O)[O-])c(Nc2nnnn2CCO)c([N+](=O)[O-])c1 | inactive: 0.39% |
| CN1CCCCC1COC(=O)C1(O)c2ccccc2CCc2ccccc21 (stereo not drawn) | inactive: -0.08% |
| COc1ccccc1OP(C)(=O)Nc1c(C)cccc1C (stereo not drawn) | inactive: 0.24% |
| CCCOc1ccc(NP(C)(=O)Oc2ccc(Cl)cc2)cc1 (stereo not drawn) | inactive: -0.1% |
| CP(=O)(Nc1ccc(SC(F)(F)F)cc1)Oc1ccccc1 (stereo not drawn) | inactive: 0.88% |
| O=[N+]([O-])c1cc([N+](=O)[O-])c(-n2nnc3ccccc32)c([N+](=O)[O-])c1 | inactive: 0.92% |
| Cc1nc2ccc3ccccc3c2s1.O=[N+]([O-])c1cc([N+](=O)[O-])c(O)c([N+](=O)[O-])c1 | inactive: 1.79% |
| COc1ccccc1OP(C)(=O)Nc1cccc(Br)c1 (stereo not drawn) | inactive: 0.09% |
| Cc1cc(C)cc(OP(C)(=O)Nc2ccc(C)cc2C)c1 (stereo not drawn) | inactive: -1.14% |
| CCOC(=O)c1ccc(NP(C)(=O)Oc2cc(C)cc(C)c2)cc1 (stereo not drawn) | inactive: -0.49% |
| Cc1cc(C)cc(OP(C)(=O)Nc2ccccn2)c1 (stereo not drawn) | inactive: 1.01% |
| CP(=O)(Nc1cccc(Br)c1)Oc1ccccc1 (stereo not drawn) | inactive: 0.51% |
| Cc1ccc(C)c(NP(C)(=O)Oc2ccccc2)c1 (stereo not drawn) | inactive: 0.19% |
| O=C(O)c1cccc(Nc2c([N+](=O)[O-])cc([N+](=O)[O-])cc2[N+](=O)[O-])c1 | inactive: -0.57% |
| CC1=NCCc2c1[nH]c1ccccc21.O=[N+]([O-])c1cc([N+](=O)[O-])c(O)c([N+](=O)[O-])c1 | inactive: -0.65% |
| Cc1cccc(C)c1OP(C)(N)=O (stereo not drawn) | inactive: -0.17% |
| CC(C)(C)c1ccc(OP(C)(=O)Nc2ccc(SC(F)(F)F)cc2)cc1 (stereo not drawn) | inactive: 1.56% |
| O=[N+]([O-])c1ccc2c(c1)C=Nc1ccccc1O2 | inactive: 1.17% |
| CCOC(=O)c1ccc(NP(C)(=O)Oc2ccccc2)cc1 (stereo not drawn) | inactive: 0.2% |
| Cc1ccc(NP(C)(=O)Oc2ccccc2)c(C)c1 (stereo not drawn) | inactive: 0.24% |

| SMILES | inhibition |
| --- | --- |
| COc1ccccc1OP(C)(=O)Nc1ccc(C)cc1 (stereo not drawn) | inactive: -0.17% |
| COc1ccc(OP(C)(=O)Nc2cccc(F)c2)cc1 (stereo not drawn) | inactive: 0.8% |
| COc1ccccc1OP(C)(=O)Nc1cc(Cl)ccc1C (stereo not drawn) | inactive: -0.54% |
| Cc1cc(C)cc(OP(C)(N)=O)c1 (stereo not drawn) | inactive: 0.44% |
| CCN(CC)CCCOC(=O)C(O)(c1ccccc1)c1ccccc1 | inactive: 0.84% |
| CP(=O)(Oc1ccccc1)OC(c1ccccc1)C(F)(F)F (stereo not drawn) | inactive: 0.01% |
| CP(=O)(Nc1ccc(SC(F)(F)F)cc1)Oc1ccc(Cl)cc1 (stereo not drawn) | inactive: -0.25% |
| Cc1cccc(C)c1OP(C)(=O)Nc1ccc(SC(F)(F)F)cc1 (stereo not drawn) | inactive: 0.72% |
| Cc1cc(C)cc(OP(C)(=O)Nc2ccc(SC(F)(F)F)cc2)c1 (stereo not drawn) | inactive: -0.16% |
| CP(=O)(NC(=O)Nc1ccccc1)Oc1ccccc1 (stereo not drawn) | inactive: 1.65% |
| CCc1ccc(OP(C)(=O)N2CCN(c3ccc([N+](=O)[O-])cc3)CC2)cc1 (stereo not drawn) | inactive: -0.89% |
| CCOP(C)(=S)SCC(=O)NC(C)C(=O)O (stereo not drawn) | inactive: -0.54% |
| CCOC(=O)c1ccc(NP(C)(=O)Oc2ccc(OC)cc2)cc1 (stereo not drawn) | inactive: 0.99% |
| CP(=O)(Nc1ccccn1)Oc1ccc(Cl)cc1 (stereo not drawn) | inactive: 0.51% |
| CP(=S)(Nn1cnnc1)Oc1ccccc1 (stereo not drawn) | inactive: 0.35% |
| COc1ccccc1OP(C)(=O)Nc1ccccc1 (stereo not drawn) | inactive: 1.87% |
| CP(=O)(Nc1ccccc1Br)Oc1ccccc1 (stereo not drawn) | inactive: 1.56% |
| CP(=O)(OC12CC3CC(CC(C3)C1)C2)OC12CC3CC(CC(C3)C1)C2 | inactive: -0.67% |
| CCOC(=O)c1ccc(NP(C)(=O)Oc2ccc(Cl)cc2)cc1 (stereo not drawn) | inactive: 0.71% |
| COc1ccc(OP(C)(=O)Nc2ccc(Br)cc2)cc1 (stereo not drawn) | inactive: 0.44% |
| CCN(CC)CC(O)COC(=O)C(O)(c1ccccc1)C1CCCCC1 (stereo not drawn) | inactive: -0.28% |

| SMILES | inhibition |
| --- | --- |
| CCc1ccc(OP(C)(=O)Nc2cccnc2)cc1 (stereo not drawn) | inactive: 0.6% |
| CP(=O)(Oc1ccccc1)N1CCOC1=O (stereo not drawn) | inactive: 0.57% |
| O=C(OCCCN1CCCC1)C(O)(c1ccccc1)C1CCCCC1 (stereo not drawn) | inactive: -0.88% |
| COc1ccccc1OP(C)(=O)Nc1c(C)n(C)n(-c2ccccc2)c1=O (stereo not drawn) | inactive: 0.67% |
| CP(=O)(Nc1ccc(Cl)cc1)Oc1ccc(F)cc1 (stereo not drawn) | inactive: -0.01% |
| COc1ccccc1OP(C)(=O)Nc1ccccc1Br (stereo not drawn) | inactive: 0.85% |
| CC(C)(C)c1ccc(OP(C)(=O)O)cc1 | inactive: 1.38% |
| CN(C)C(=O)c1c([N+](=O)[O-])cc([N+](=O)[O-])cc1[N+](=O)[O-] | inactive: 1.11% |
| COc1ccccc1OP(C)(=O)Nc1ccc(Br)cc1 (stereo not drawn) | inactive: 0.02% |
| CN(C)CCOC(=O)C(O)(c1ccccc1)C1CCCC1 (stereo not drawn) | inactive: 0.25% |
| COc1ccc(OP(C)(=O)Nc2ccccn2)cc1 (stereo not drawn) | inactive: 0.18% |
| Cc1c(NP(C)(=O)Oc2ccc(C(C)C)cc2)c(=O)n(-c2ccccc2)n1C (stereo not drawn) | inactive: 0.55% |
| O=[N+]([O-])c1cc([N+](=O)[O-])c(Nc2ccccn2)c([N+](=O)[O-])c1 | inactive: 0.28% |
| CCc1ccc(OP(C)(=O)O)cc1 | inactive: 1.08% |
| COc1ccccc1OP(C)(=O)Nc1ccc(C)cc1C (stereo not drawn) | inactive: 0.26% |
| CP(=O)(Nc1ccccn1)Oc1ccccc1 (stereo not drawn) | inactive: 0.11% |
| Cc1cc(C)cc(OP(C)(=O)Nc2cccc(C(F)(F)F)c2)c1 (stereo not drawn) | inactive: -0.23% |
| COc1ccc(OP(C)(=O)Nc2ccccc2Br)cc1 (stereo not drawn) | inactive: 0.69% |
| COc1ccccc1OP(C)(=O)Nc1ccc(C)c(C)c1 (stereo not drawn) | inactive: -0.22% |
| Cc1nc2ccc3ccccc3c2o1.O=[N+]([O-])c1cc([N+](=O)[O-])c(O)c([N+](=O)[O-])c1 | inactive: 1.47% |
| CP(=O)(Nc1ccc(Cl)cc1Cl)Oc1ccccc1 (stereo not drawn) | inactive: 0.78% |
